INS-1E GSIS act: primary screen for activators of insulin secretion dependent on glucose, INS-1E cells, GLuc reporter luminescence; AID 743287; INS-1E GLuc reporter insulin secretion, 2-3 h; 370,000 compounds, 0.61% hits; activation, % at 16.6 µM;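 active = lowest replicate activation of at least 40%, so every replicate reaches that level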
NR1D1 modulator: Rev-erb alpha (human) modulation | P20393 | activity, % at 10 µM | 370,000 compounds, 0.79% hits | Rev-erbα–FITC-DNA binding, fluorescence polarization, 90 min;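 active = activity above about 14%, limit read from the data; passing the limit was not always enough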
SMARCA2 activ: increases SMARCA2 function in MMTV reporter cells; AID 652017; 370,000 compounds, 1% hits; activation, % at 9.1 µM; MG213 cells, MMTV-luciferase reporter, dexamethasone, overnight; in the data active = activation above about 7.8%
PDI inh: blocks human protein disulfide isomerase activity. P07237. PDI insulin aggregation turbidity, A650, 90 min. inhibition, % at 10 µM. 350,000 compounds, 0.052% hits;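 active = mean inhibition across replicates of 30% or more, whatever share of single replicates reach that level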
Yeast UUG start: modulators of yeast start codon fidelity, primary screen, whole organism, S. cerevisiae, single point, plate reader; S. cerevisiae UUG-firefly luciferase reporter, luminescence/redox ratio; activity score, % at 18.7 µM; actives 0.13% (n = 350,000); AID 602363, 2012;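 active = replicate mean at a twofold rise or more, about +100% in these data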;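 also: firefly luciferase made from a UUG start codon reports start codon fidelity; reporter light over untreated wells divided by growth signal over untreated wells; some hits fall short of that in this replicate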
ERp5 block: ERp5 (human) disulfide isomerase inhibition | Q15084 | ERp5 insulin aggregation, absorbance 650 nm, 90 min | inhibition, % at 9.99 µM | 350,000 compounds, 0.05% hits;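 active = mean replicate inhibition above about 25%, with every replicate also reaching it, limit read from the data, passing the limit was not always enough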
NR1D1 mod conf: confirmation of modulators of human Rev-erb alpha DNA binding. shares compounds with NR1D1 modulator. Rev-erb alpha FITC-DNA binding, fluorescence polarization, 90 min. activation, % at 25 µM. 3,000 compounds, 61% hits;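 active = activation at or above a set limit, or at least 3 SD above the negative control mean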
RORg counter: affects RORgamma DNA binding in a Rev-erb alpha counter-screen; shares compounds with NR1D1 modulator; purified RORgamma protein-FITC-DNA binding, fluorescence polarization; IC50, µM; 910 compounds, 8% hits;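 active = Compounds whose fitted half-maximal concentration for disrupting protein-DNA binding is below 10 micromolar; the record names Rev-erb in its text, so the target is in doubt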
A number is an active result; . = inactive; / = not tested or not shown. Only some compounds are listed: those with a hit (about 2.1% of all), similar ones and a draw of the others.

SMILES	INS-1E GSIS act	NR1D1 modulator	SMARCA2 activ	PDI inh	Yeast UUG start	ERp5 block	NR1D1 mod conf	others
C[C@H]1CN([C@@H](C)CO)C(=O)Cc2cc(NC(=O)NC3CCCCC3)ccc2O[C@H]1CN(C)S(=O)(=O)c1ccc(Cl)cc1	.	/	/	/	.	.	/
COc1ccccc1CN1CC(C(=O)NCc2nccn2C)CCC1=O (stereo not drawn)	/	20	.	.	.	.	.
COc1ccccc1CN1CC(C(=O)NCc2nc3ccccc3n2C)CCC1=O (stereo not drawn)	.	.	.	.	.	.	/
Cc1noc(C)c1NC(=O)N(C)C[C@H]1Oc2ccc(NS(C)(=O)=O)cc2C(=O)N([C@@H](C)CO)C[C@H]1C	.	/	/	/	.	.	/
CCOC(=O)Nc1ccc2c(COC(=O)c3ccccc3O)cc(=O)oc2c1	.	.	.	.	.	.	/
CCOC(=O)Nc1ccc2c(COC(=O)CNS(=O)(=O)c3cccc(Br)c3)cc(=O)oc2c1	.	76	.	.	.	/	43
CCOC(=O)Nc1ccc2c(COC(=O)CN(C)S(=O)(=O)c3ccc(C)cc3)cc(=O)oc2c1	.	46	.	.	.	.	.
C[C@H](CO)N1C[C@H](C)[C@@H](CN(C)Cc2cncnc2)Oc2cc(/C=C/c3ccccc3)ccc2S1(=O)=O	.	/	/	/	.	.	/
CCCCN1C[C@@H](COCc2ccccc2)Oc2cccc(F)c2S1(=O)=O	/	17	.	/	/	/	.
CCCCN1CC(COCc2ccccc2)Oc2cccc(F)c2S1(=O)=O (stereo not drawn)	.	.	.	.	.	.	/
COc1ccc(NC(=O)N[C@H]2CC[C@@H](CCNC(=O)Nc3cc(F)ccc3F)O[C@@H]2CO)cc1	.	/	/	/	/	/	/
COc1ccc(OC)c(C(=O)CSc2nc3c(c(=O)n(C)c(=O)n3C)n2C(C)C)c1	/	37	.	.	.	/	.
Cc1ccc(S(=O)(=O)N(C)C[C@H]2OCCCC[C@@H](C)Oc3ccc(NC(=O)Nc4c(C)noc4C)cc3C(=O)N([C@H](C)CO)C[C@H]2C)cc1	.	/	/	/	/	.	/
Cc1cc(C(=O)N2CCN(S(C)(=O)=O)CC2)sc1-c1ccccc1	.	41	.	.	.	/	35
COc1cccc(C(=O)Nc2ccc3c(c2)OC[C@@H](C)N(C)C[C@@H](C)[C@H](OC)CN(C)C3=O)c1	.	/	/	/	.	.	/
Cc1cc(C)c2c(n1)nn1c(N3CCN(c4ccccc4)CC3)cc(C)nc21	/	40	.	.	.	/	26
Cc1cc(N2CCN(c3ccccc3)CC2)n2ncnc2n1	/	.	.	.	/	.	/
C[C@@H]1CN([C@@H](C)CO)C(=O)c2cccc(NC(=O)C3CCCCC3)c2O[C@H]1CN(C)C(=O)NC1CCCCC1	.	/	/	/	.	.	/
COCC(=O)Nc1ccc2c(c1)C(=O)N(C)[C@H]1CC[C@H](CC(=O)NCc3ccc(OC)cc3)O[C@H]1CO2	.	/	/	/	.	/	/
Cc1cc(NC(=O)c2cc(-c3ccccn3)nc3ccc(Br)cc23)no1	.	18	.	.	.	.	22
NS(=O)(=O)c1ccc(CNC(=O)c2cc(-c3cccnc3)nc3ccc(Br)cc23)cc1	.	43	.	.	.	.	31	RORg counter=1.3
NS(=O)(=O)c1ccc(CCNC(=O)c2cc(-c3ccccn3)nc3ccc(Br)cc23)cc1	.	34	.	.	/	.	30	RORg counter=.
NS(=O)(=O)c1ccc(CCNC(=O)c2cc(-c3ccc(Br)cc3)nc3ccccc23)cc1	.	.	.	.	/	/	/
Cc1ccc(-c2cc(C(=O)NCc3cnn(C)c3C)c3cc(Br)ccc3n2)cc1	/	32	.	.	.	/	.
Cc1cc(NC(=O)c2cc(-c3ccccn3)nc3ccccc23)no1	/	.	.	.	.	/	/
SMILES	INS-1E GSIS act	NR1D1 modulator	SMARCA2 activ	PDI inh	Yeast UUG start	ERp5 block	NR1D1 mod conf	others
Cc1noc(C)c1NC(=O)N(C)C[C@H]1Oc2c(NS(=O)(=O)c3cccs3)cccc2C(=O)N([C@@H](C)CO)C[C@H]1C	.	/	/	/	.	.	/
O=C(C[C@@H]1CC[C@@H]2[C@H](COC[C@@H](O)CN2Cc2cccc(-c3ccncc3)c2)O1)N1CCN(c2ccccc2)CC1	.	/	/	/	.	.	/
CCSc1nnc(NC(=O)c2cc3c(s2)CCCC3)s1	/	33	.	.	.	/	38	RORg counter=.
CC(C)Cc1nnc(NC(=O)c2cc3c(s2)CCC3)s1	/	.	.	.	.	.	/
O=C(Nc1nnc(SCc2ccccc2)s1)c1cc2c(s1)CCCC2	.	52	.	.	.	/	34	RORg counter=.
Cc1c(C(=O)N2CCN(Cc3ccc4c(c3)OCO4)CC2)sc2ncnc(N3CCN(c4ccccc4)CC3)c12	.	.	.	.	.	.	/
Cc1c(C(=O)N2CCN(Cc3ccc4c(c3)OCO4)CC2)sc2ncnc(N3CCN(c4ccccc4F)CC3)c12	.	22	.	.	.	.	18
C[C@@H]1CN([C@@H](C)CO)C(=O)c2cccc(NC(=O)Nc3ccc4c(c3)OCO4)c2O[C@@H]1CN(C)C(=O)NC1CCCCC1	.	/	/	/	.	.	/
O=C(CSc1nc2ccccc2nc1N1CCCC1)Nc1ccc(Cl)cc1	.	.	.	/	.	.	/
O=C(CSc1nc2ccccc2nc1N1CCCCC1)N1CCN(S(=O)(=O)c2cc(Cl)ccc2Cl)CC1	/	28	.	/	/	/	30	RORg counter=.
CCOC(=O)c1c(-c2ccc(C)s2)csc1NC(=O)c1cccs1	/	50	.	.	.	/	25
COc1cc(OC)cc(-c2c(Sc3ccccc3)c3cc(-c4ccc(SC)cc4)ccc3n2C)c1	.	29	.	/	/	.	35	RORg counter=.
Cn1c(-c2ccccc2)c(Sc2ccccc2)c2cc(-c3ccc4[nH]ccc4c3)ccc21	.	.	.	/	/	.	/
COc1cc(OC)cc(-c2c(Sc3ccccc3)c3cc(-c4ccc(OC)nc4)ccc3n2C)c1	.	.	.	/	/	.	/
COc1cc(OC)cc(-c2c(Sc3ccccc3)c3cc(-c4ccc(OC)c(F)c4)ccc3n2C)c1	.	21	.	/	/	.	37	RORg counter=.
CSc1ccc(-c2ccc3c(c2)c(Sc2ccccc2)c(-c2ccccc2)n3C)cc1	.	17	.	/	/	.	25
COc1ccc(-c2ccc3c(c2)c(Sc2ccccc2)c(-c2ccccc2)n3C)cc1	.	.	.	/	/	.	/
CN(C)C(=O)C[C@H]1CC[C@H](NC(=O)c2ccc(F)cc2)[C@H](CO)O1	/	/	/	/	.	.	/
Cc1cc(=O)oc2cc(OCC(=O)N3CCc4ccccc4C3)ccc12	/	.	.	.	/	/	/
COc1ccc2c(c1)c(=O)oc1c(C)c(OCC(=O)N3CCc4ccccc4C3)ccc12	.	20	.	.	.	/	.
CCc1nc2c(c(SC)nn2-c2ccccc2)c(N)c1C(=O)OC	/	26	.	.	.	/	.
COC(=O)c1cc(C)nc2c1c(C)nn2-c1ccccc1	.	.	.	.	.	.	/
